Reported water solubility values for industrial, environmental and drug-like chemicals

Values as listed in the OPERA 2.9 repository of K. Mansouri.

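These are experimental values that the OPERA curators gathered from public databases to train and test their QSAR models. A listed value is a point estimate from one report or more. Method and conditions are not stated for these values. Where a salt, mixture or single isomer is drawn, the source does not say that exactly this form was tested. Unmarked limits or estimates from the upstream databases cannot be ruled out.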

Solubility in water is on a log10 molar scale (set defined at 25 °C). Cells with "n/a" have no entry in this list.

CC(C)(C)NC[C@H](O)COc1cccc2c1CCCC2=O [Levobunolol] has log S -3.065 (log10 mol/L). CN=C(O)O/N=C/c1ccc(Cl)cc1 [4-CL BENZALDEHYDE,O-((MEAM)CO)OXIME] is reported with log S -2.69 (log10 mol/L). For CCCCCCCCCCCCc1ccc(N)cc1 [4-Dodecylaniline] the data give log S -2.64 (log10 mol/L). Listed for CC(C)(C)C1CCC(=O)CC1 [4-tert-Butylcyclohexanone]: log S -2.417 (log10 mol/L). Listed for OCCC(F)(F)C(F)(F)C(F)(F)C(F)(F)C(F)(F)C(F)(F)F [6:2 Fluorotelomer alcohol]: log S -4.32 (log10 mol/L). The entry for O=c1n(CC(Br)CBr)c(=O)n(CC(Br)CBr)c(=O)n1CC(Br)CBr (stereo not drawn) lists log S -5.158 (log10 mol/L).

For CCN(CC)C(=S)SSC(=S)N(CC)CC [Disulfiram] the data give log S -3.928 (log10 mol/L). CC(=O)O[C@@H]1C[C@H](C)CC[C@H]1C(C)C (racemic) is reported with log S -4.067 (log10 mol/L). The entry for CCCCC(CC)C1OCCN1CCOC(=O)NCCCCCCNC(=O)OCCN1CCOC1C(CC)CCCC (stereo not drawn) lists log S -5.791 (log10 mol/L). CCCN(CCC)C(=O)CCC(=O)OCC [Succinamic acid, N,N-dipropyl-, ethyl ester] has log S -1.096 (log10 mol/L). O=C1C(O)=C(Br)C(=O)C(O)=C1Br [2,5-Cyclohexadiene-1,4-dione, 2,5-dibromo-3,6-dihydroxy-] is reported with log S -2.313 (log10 mol/L). Listed for OCC(Cl)Cl [2,2-Dichloroethanol]: log S 0.155 (log10 mol/L).

For CCCC[N+](CC)(CCCC)CCCCCC[N+](CC)(CCCC)CCCC.CCOS(=O)(=O)[O-].CCOS(=O)(=O)[O-] the data give log S -0.131 (log10 mol/L). C=COCC [Ethene, ethoxy-] has log S -0.85 (log10 mol/L). O=C(CCBr)N1CCN(C(=O)CCBr)CC1 [Pipobroman] has log S -2.201 (log10 mol/L). CCCOC(=O)c1ccc(N)cc1 [Risocaine] has log S -2.33 (log10 mol/L). Listed for O=C1c2ccccc2C(=O)C1c1nc2ccccc2cc1O [C.I. Solvent Yellow 114]: log S -8 (log10 mol/L). CN1CCN(CCCN2c3ccccc3Sc3ccccc32)CC1 [Perazine] is reported with log S -4.75 (log10 mol/L).

The entry for Nc1c(Cl)c(Cl)c(N)c2c1C(=O)c1ccccc1C2=O lists log S -6.764 (log10 mol/L). CC1=NN(c2ccccc2)C(=O)CC1 [4,5-Dihydro-6-methyl-2-phenylpyridazin-3(2H)-one] has log S -1.55 (log10 mol/L). O=C(O)CCCc1ccccc1 [4-Phenylbutyric acid] is reported with log S -0.96 (log10 mol/L). O=C1CCN(c2ccccc2)N1 [1-Phenyl-3-pyrazolidinone] is reported with log S -1.797 (log10 mol/L). CCCCNC(=O)NS(=O)(=O)c1ccc(N)cc1 [Carbutamide] is reported with log S -2.18 (log10 mol/L). COC(CC(=O)O)c1ccccc1 (stereo not drawn) [3-Methoxy-3-phenylpropanoic acid] is reported with log S -1.695 (log10 mol/L).

Nc1ncnc2c1ncn2[C@@H]1O[C@H](COP(=O)(O)O)[C@@H](OP(=O)(O)O)[C@H]1O [Adenosine 3'-phosphate-5'-phosphate] has log S 0.158 (log10 mol/L). For Oc1ccnc2ccccc12 [4-Hydroxyquinoline] the data give log S -1.481 (log10 mol/L). For O=[N+]([O-])c1cc(N(CCO)CCO)ccc1NCCO [HC Blue 2] the data give log S -2.125 (log10 mol/L). For CN(C)c1ccc(C(=N)c2ccc(N(C)C)cc2)cc1 [Auramine] the data give log S -1.429 (log10 mol/L). CC(C)Oc1ccc(COc2ccc(CC(=O)O)cc2Cl)cc1 is reported with log S -0.616 (log10 mol/L). For CC(=O)OCCCc1ccc(S(N)(=O)=O)cc1 [3-(4-Sulfamoylphenyl)propyl acetate] the data give log S -2.206 (log10 mol/L).

Listed for O=C(O)CCC(=O)NC(Cc1cc(I)c(Oc2cc(I)c(O)c(I)c2)c(I)c1)C(=O)O (stereo in doubt): log S -1.965 (log10 mol/L). CC(=O)c1ccc2c(c1)N(CCCN(C)C)c1ccccc1S2.O=C(O)/C=C\C(=O)O [Acetopromazine maleate] is reported with log S -1.08 (log10 mol/L). CC(=O)OC(=O)C(O)c1ccccc1 (stereo not drawn) [Acetic hydroxy(phenyl)acetic anhydride] is reported with log S -1.23 (log10 mol/L). CC1(C)S[C@@H]2[C@H](NC(=O)Cc3ccccc3)C(=O)N2[C@H]1C(=O)O [Penicillin G] is reported with log S -3.202 (log10 mol/L). Nc1c2[nH]cnc2nc[n+]1[O-] is reported with log S -2.28 (log10 mol/L). COC(=O)C(N)Cc1cc(I)c(Oc2cc(I)c(O)c(I)c2)c(I)c1 (stereo not drawn) is reported with log S -3.668 (log10 mol/L).

CC1(C)O[C@@H]2C[C@H]3[C@@H]4C[C@H](F)C5=CC(=O)C=C[C@]5(C)[C@@]4(F)[C@@H](O)C[C@]3(C)[C@]2(C(=O)CO)O1 [Fluocinolone acetonide] is reported with log S -3.918 (log10 mol/L). Listed for Cc1noc(C)c1NS(=O)(=O)c1ccc(N)cc1: log S -3.184 (log10 mol/L). N[C@@H](CCSSCC[C@H](N)C(=O)O)C(=O)O has log S -3.13 (log10 mol/L). C[C@H]1O[C@H](O[C@H]2[C@H](O)[C@@H](O)[C@@H](O[C@@H]([C@H](O)[C@@H](O)C=O)[C@H](O)CO)O[C@@H]2CO)[C@H](O)[C@@H](O)[C@@H]1N[C@H]1C=C(CO)[C@@H](O)[C@H](O)[C@H]1O [Acarbose] has log S -0.64 (log10 mol/L). For Oc1nc2ccccc2[nH]1 [2H-Benzimidazol-2-one, 1,3-dihydro-] the data give log S -2.393 (log10 mol/L). CC(=CC(=O)O)SC(C)=CC(=O)O [3,5-Dimethyl-4-thia-hepta-2,5-diendioic acid] is reported with log S -2.306 (log10 mol/L).

Listed for CCOc1ccccc1C=O [Benzaldehyde, 2-ethoxy-]: log S -2.112 (log10 mol/L). CCCn1cnc2c1c(=O)n(C)c(=O)n2C [Theophylline, n-propyl derivative] is reported with log S 0.017 (log10 mol/L). Listed for CCn1cc(C(=O)O)c(=O)c2cc(F)c(N3CCNCC3)nc21 [Enoxacin]: log S -1.971 (log10 mol/L).

The 2 lowest values of log S among the entries above:

| compound | name | log S (log10 mol/L) |
|---|---|---|
| O=C1c2ccccc2C(=O)C1c1nc2ccccc2cc1O | C.I. Solvent Yellow 114 | -8 |
| Nc1c(Cl)c(Cl)c(N)c2c1C(=O)c1ccccc1C2=O | n/a | -6.764 |